According to patent US20080199424A1 (published 2008):

Key:
[1] = biological target: MART-1 peptide on HLA-A*02:01 (human); assay: lower end of the range; equilibrium tetramer binding on Jurkat cells stably transfected with M1 alpha and beta, tetramer 0.1-25 nM, Scatchard plot, KD=1/slope (tetramer avidity); full-length, on cells
[2] = biological target: MART-1 peptide on HLA-A*02:01 (human); assay: upper end of the range; equilibrium tetramer binding on Jurkat cells stably transfected with M1 alpha and beta, tetramer 0.1-25 nM, Scatchard plot, KD=1/slope (tetramer avidity); full-length, on cells

Kd [1]: ≥ 4 nM
Kd [2]: ≤ 6 nM
B1: M1 TCR (TCR, V domains shown)
Valpha: QKEVEQDPGPLSVPEGAIVSLNCTYSNSAFQYFMWYRQYSRKGPELLMYTYSSGNKEDGRFTAQVDKSSKYISLFIRDSQPSDSATYLCAMSETGGFKTIFGAGTRLFVKA
Vbeta: EAQVTQNPRYLITVTGKKLTVTCSQNMNHEYMSWYRQDPGLGLRQIYYSMNVEVTDKGDVPEGYKVSRKEKRNFPLILESPSPNQTSLYFCASSLVGTAGSPLHFGNGTRLTVT
